Measured values taken from patent publication US12630600B2 (MEDIMMUNE LIMITED, priority 2022, dated 2026).

Test: Pharmacokinetic profiling in mouse (i.v., s.c.)
Conditions: Mouse C57bl/6, 10 nmol/kg, AUC(s.c.)0-inf/AUC(i.v.)0-inf
Text: Selected test peptides (n=8) were profiled for pharmacokinetic (PK) properties in the mouse after single intravenous (i.v.) or subcutaneous (s.c.) dose. A subset (n=4) meeting the acceptance criteria was subsequently profiled in the dog (single i.v. dose) and non-human primate (single i.v. and s.c. dose). […] Low-binding plasticware containers were used during preparation and sample handling to avoid non-specific binding.
After dosing, PK samples were collected from the dorsal metatarsal vein. Blood of each sample was transferred into plastic micro centrifuge tubes containing EDTA-K2, inverted several times for proper mixing of contents and then placed on wet ice. The blood samples were centrifuged at 4° C. to obtain plasma and stored at −75° C. prior to analysis.
Samples analysis: Samples were analyzed by LC-MS/MS. Calibration standards were injected at the beginning and end of each batch and the determined concentration for each prepared standard was used to construct a calibration curve. Plasma and dose aliquot sample concentrations were determined from the plasma calibration curve.
Data analysis: Plasma concentration data was analyzed by non-compartmental analysis (NCA) using Phoenix Winnonlin v. 8.3.3.33. […] Subcutaneous bioavailability was calculated as the ratio AUC(s.c.)0-inf/AUC(i.v.)0-inf. […]

H-Aib-Q-G-T-F-T-S-D-V-S-K-αMePhe-L-D-T-K-R-A-R-D-F-V-Q-W-L-L-E-Aib-G-acid [Peptide 195]
S.c. bioavailability: 66%
